Molecular target: bovine trypsin (bovine)
Experiment: not stated; Ki 'recorded for BPTI' against trypsin; no method and no citation given

bovine pancreatic trypsin inhibitor (from UniProt P00974 36-93) (natural protein)
Ki: 0.15 nM
